These results are taken from patent publication US9233171B2, “Method of treatment of tumors that are resistant to EGFR antibody therapies by EGFR antibody cytotoxic agent conjugate” (ImmunoGen, Inc., priority 2011, dated 2016).

The subject of one data set is H226 cell line. As to the kind of experiment: in vitro cytotoxic assay, H226. It counts as cell-based. How it is done: (§1) The cytotoxic assay was performed as follows.
NSCLC cell lines with mesenchymal histology are generally more resistant to gefitinib than those with epithelial histology (Yauch R L. et al. Clin Cancer Res 11: 8686 (2005)). […] H226 cell line is a squamous cell carcinoma with mesenchymal histology. Despite of high EGFR expression, H226 cell line is resistant to gefitinib (Yauch R L. et al. Clin Cancer Res 11: 8686 (2005)). […] The non-binding control conjugate, chKTI-SMCC-DM1 was only cytotoxic at ˜160 fold higher concentration than the huEGFR-7R-SMCC-DM1 conjugate.

The subject of a further data set is Detroit 562. As to the kind of experiment: in vitro cytotoxicity assay, Detroit 562. The settings on record: Detroit562. It counts as cell-based. How it is done:
as §1
In contrast, cetuximab and the huEGFR-7R antibody had no effect on the tumor cell growth.

In the next data set the test system is HCC827 ER (Aichi) cells. As to the kind of experiment: in vitro cytotoxicity assay, HCC827 ER (Aichi). It counts as cell-based. How it is done: as §1
(§2) The HCC827 ER cell line contains high MET gene copy number and the HCC827 EPR cell line carries T790M EGFR mutation (Suda K. et al. Clin Cancer Res 16: 5489 (2010)). These cell lines reflect the two major mechanisms of resistance against EGFR tyrosine kinase inhibitors (Sequist L. et al. Sci Transl Med 3: 75ra26 (2011)).

For another data set, the system named is HCC827 EPR (Aichi) cells. As to the kind of experiment: in vitro cytotoxicity assay, HCC827 EPR (Aichi). The data set is classed as cell-based. As for the experimental part: as §1, §2
The subject of a further data set is HCC827 cell line. As to the kind of experiment: in vitro cytotoxic assay, HCC827 in absence or presence of HGF.

Turning to cetuximab, the “effect on tumor cell growth” value with H226 cell line is given as “neither the huEGFR-7R antibody nor cetuximab had effect”; in the data set with Detroit 562, “had no effect”. For the same substance, the “sensitivity / resistance” value in the data set on HCC827 ER (Aichi) cells and with HCC827 EPR (Aichi) cells was “highly resistant” in each case. In addition, the “cytotoxic effect” value with HCC827-ER cell line and in the data set with HCC827-ER-E4 cell line was “little effect” throughout. Also, the “cell growth inhibition” value in the data set on HCC827 cell line (HCC827 + 50 ng/mL HGF) is reported as “further reduced”; with HCC827 cell line (HCC827, absence of HGF), “marginal activities”.
